# Curated experimental data: vapor pressure values

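The numbers are reported measurements, compiled and curated for the OPERA QSAR suite. A listed value is a point estimate from one report or more. How each value was measured is not recorded, so precision varies. Where a salt, mixture or single isomer is drawn, the source does not say that exactly this form was tested. Some entries may be limits or estimates that an upstream database listed as plain numbers.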

Vapor pressures (log10 mmHg) refer to near room temperature, 15 to 30 °C; higher is more volatile.

SMILES | vapor pressure (log10 mmHg)
COC(F)(F)C(F)(F)C(F)F | 2.137
CCOC=C1N=C(c2ccccc2)OC1=O | -5.194
ClCCC[Si](Cl)(Cl)Cl | -0.112
C=C[Si](Cl)(Cl)CC | 1.23
Cc1cc(N=Nc2ccc([N+](=O)[O-])cc2)ccc1N(C)C | -8
CCB(CC)c1cccnc1 | -9.907
C=CCC(=CCC1CC(=O)OC1=O)CC=C (stereo unspecified) | -0.601
CCCCCCCCCCCC(=O)Cl | -2.372
CC1CC(C)S(=O)(=O)C1 (stereo unspecified) | -2.116
CCCOC(F)(F)C(F)(F)C(F)(F)C(F)(F)F | 1.711
C[N@@](CCO)CCCN | -1.824
Clc1ccc(-c2c(Cl)c(Cl)cc(Cl)c2Cl)c(Cl)c1 | -4.666
Clc1cc(Cl)c(-c2c(Cl)cccc2Cl)cc1Cl | -4.305
CCCCCCCCCCCCCCCCCc1ncc[nH]1 | -4.011
Clc1ccc(-c2cccc(Cl)c2)cc1 | -3.365
CCCCCCCCCCCCCC[N+](C)(C)Cc1ccccc1.[Cl-] | -5.87
OCCOCCCl | -0.77
CCc1c(C(=O)O)c(=O)cnn1-c1ccc(Cl)cc1 | -7.062
Cl.NCC(=O)O | -4.533
C/C=C\C(C)C | 2.368
COc1cc(Cl)c(Cl)c(Cl)c1Cl | -2.045
CCNc1nc(=O)nc(NC(C)(C)C)[nH]1 | -8.244
C(OCC1CO1)C1CO1 (stereo unspecified) | -1.046
Nc1cc([N+](=O)[O-])ccc1O | -4.453
OCCN1CCCCC1 | -0.695
NCC1CCOC1 (stereo unspecified) | -0.042
CC(C)(CO)[C@@H](O)C(=O)NCCCO | -5.45
CC(C)C(C)(C)C(C)(C)C(C)(C)S | -0.824
OCCN1CCOCC1 | -1.084
O=C([O-])C(O)C(O)C(=O)[O-].[K+].[Na+] (stereo unspecified) | -7.307
OC/C=C/CO | -2.17
C=C(C#N)C(=O)OCC | -0.656
Cc1ccc(S(=O)(=O)NN)cc1 | -7.269
C=CC(=O)O[C@H]1C[C@@H]2CC[C@@]1(C)C2(C)C | -1.907
CC1(C)CC(N)CC(C)(C)N1 | -0.581

Data: OPERA 2.9 data sets, kmansouri/OPERA on GitHub.